For one compound, IC50 results are on record in ChEMBL document CHEMBL5034024, “Peptidylarginine deiminases 4 as a promising target in drug discovery” (Eur J Med Chem, 2021).

The assay deals with Protein-arginine deiminase type-4 (Homo sapiens, UniProt Q9UM07). The assay can be described thus: Inhibition of PAD4 (unknown origin) by Fluopol-ABPP HTS assay.

A word on the IC50: it is the concentration that gives 50% inhibition. On to `NC1=CC(=O)c2ccc(-c3cccc(C(=O)O)n3)nc2C1=O`, for which the IC50 is 240 nM.
